Source: patent US20210002231A1 (Centre National de la Recherche Scientifique, priority 2018, published 2021)

The chains behind the UniProt entries cited, without tags or fusion partners. Where a name states a change or a piece, a line headed by the entry shows the natural chain unless it says otherwise.
UniProt Q9GZQ6: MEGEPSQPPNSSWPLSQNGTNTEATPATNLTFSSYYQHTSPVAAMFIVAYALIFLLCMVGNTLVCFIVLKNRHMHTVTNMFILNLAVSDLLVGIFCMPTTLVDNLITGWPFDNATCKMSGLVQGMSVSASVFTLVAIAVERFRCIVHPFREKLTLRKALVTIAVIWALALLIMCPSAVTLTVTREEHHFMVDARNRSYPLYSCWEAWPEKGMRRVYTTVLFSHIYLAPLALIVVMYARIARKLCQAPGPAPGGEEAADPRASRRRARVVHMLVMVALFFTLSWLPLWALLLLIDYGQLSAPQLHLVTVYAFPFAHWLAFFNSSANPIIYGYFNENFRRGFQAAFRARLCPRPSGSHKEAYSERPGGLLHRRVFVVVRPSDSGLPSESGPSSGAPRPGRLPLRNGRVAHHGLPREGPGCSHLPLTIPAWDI

Molecular target: human NPFF1R (Homo sapiens, UniProt Q9GZQ6)
Experiment: [35S]-GTPγS binding assay
Type: biochemical
Set-up: expressed in transfected cells
Protocol: Stimulation by endogenous RF-amide peptides or test compounds for [^35S]-GTPγS binding to membranes from CHO cells expressing human NPFF1R or NPFF2R, were examined as reported. 1.6. Glo-Sensor cAMP Assay cAMP accumulation assay was essentially done as described with the following modifications: HEK293 cells stably expressing cAMP Glosensor-20F were used, with or without additional stable expression of each individual opioid receptor or NPFF1R. The cAMP responses were measured in presence of D-luciferin (1 mM).

`Cc1cc(O)cc(C)c1C[C@H](N)C(=O)N[C@H](CCCNC(=N)N)C(=O)N[C@H]1Cc2ccccc2CN(CCC(=O)N[C@@H](CCCN2CCCCC2)C(=O)N[C@@H](Cc2ccccc2)C(N)=O)C1=O` [KGFF08, H-Dmt-D-Arg-Aba-β-Ala-Apa-Phe-NH2] was tested, and the EC50 was over 10 µM.
